# Target: Mitogen-activated protein kinase kinase kinase 14 (Homo sapiens, UniProt Q99558)
# Amino acid sequences for entries named in this document (tags omitted). A change or cut given only in a name is not applied to a line headed by its entry.
# UniProt Q99558: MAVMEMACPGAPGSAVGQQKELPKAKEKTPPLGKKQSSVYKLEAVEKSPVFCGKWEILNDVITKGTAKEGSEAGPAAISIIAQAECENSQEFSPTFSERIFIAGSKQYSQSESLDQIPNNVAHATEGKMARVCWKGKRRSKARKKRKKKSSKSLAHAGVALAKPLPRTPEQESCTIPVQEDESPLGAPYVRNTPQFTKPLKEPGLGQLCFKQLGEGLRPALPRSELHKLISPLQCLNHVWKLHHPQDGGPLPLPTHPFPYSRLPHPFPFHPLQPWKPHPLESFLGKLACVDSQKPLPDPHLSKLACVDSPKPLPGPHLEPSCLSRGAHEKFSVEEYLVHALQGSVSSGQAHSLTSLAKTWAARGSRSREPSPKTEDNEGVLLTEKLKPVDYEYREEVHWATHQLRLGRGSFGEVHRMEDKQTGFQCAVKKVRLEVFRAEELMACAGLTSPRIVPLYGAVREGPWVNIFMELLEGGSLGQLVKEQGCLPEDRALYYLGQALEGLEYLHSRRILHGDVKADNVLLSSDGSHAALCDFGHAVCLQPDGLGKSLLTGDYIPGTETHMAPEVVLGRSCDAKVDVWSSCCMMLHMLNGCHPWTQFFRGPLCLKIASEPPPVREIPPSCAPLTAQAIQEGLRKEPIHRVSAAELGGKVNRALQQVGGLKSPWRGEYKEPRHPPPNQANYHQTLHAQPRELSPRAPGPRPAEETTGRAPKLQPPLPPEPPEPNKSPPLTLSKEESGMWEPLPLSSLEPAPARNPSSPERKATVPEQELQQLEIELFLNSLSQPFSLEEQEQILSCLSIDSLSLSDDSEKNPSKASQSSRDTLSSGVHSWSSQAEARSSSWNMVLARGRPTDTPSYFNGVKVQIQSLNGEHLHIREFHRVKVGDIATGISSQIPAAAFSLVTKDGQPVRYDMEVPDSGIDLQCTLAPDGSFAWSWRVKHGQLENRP
# Experiment: Inhibition of NIK (unknown origin) after 1 to 2 hrs by ADP-FP assay
# Type: single protein
row,Ki [nM],Compound
1,547,C[C@H]1Cn2cc(C(N)=O)nc2-c2cc(C#CC(C)(C)O)ccc2O1
2,1160,C[C@@H]1Cn2cc(C(N)=O)nc2-c2cc(C#CC(C)(C)O)ccc2O1
3,0.8,CN1CC[C@@](O)(C#Cc2cc3c(cc2F)OCCn2cc(C(N)=O)nc2-3)C1=O
4,405,CN1CC[C@](O)(C#Cc2cc3c(cc2F)OCCn2cc(C(N)=O)nc2-3)C1=O
